Measurements: PMC4404408 (Journal of acquired immune deficiency syndromes (1999), 2014)

How the values were obtained:
[1] = Safety / adverse events in the drug interaction study; settings: arm B, diffuse rash soon after starting DRV/r only, 2 subjects
[2] = Phase I open-label drug interaction PK study, arm B
[3] = DRV/r 800/100 mg only, day 14, N=14
[4] = DRV/r 800/100 mg with pitavastatin 2 mg, day 18, N=14
[5] = DRV/r with pitavastatin / DRV/r only

DRV AUC0-τ, geometric mean [2, 3]: 70900 ng·h/mL | DRV Cmax, geometric mean [2, 3]: 6610 ng/mL | DRV AUC0-τ, geometric mean [2, 4]: 76700 ng·h/mL | DRV Cmax, geometric mean [2, 4]: 6780 ng/mL | DRV Tmax, median (IQR) ([2]; DRV/r only, day 14, N=14): 0.5 (0.5 to 0.5) h | DRV AUC0-τ geometric mean ratio (90% CI) [2, 5]: 1.08 (0.96 to 1.22) | DRV Cmax geometric mean ratio (90% CI) [2, 5]: 1.03 (0.91 to 1.15)
Substance: darunavir/ritonavir [DRV/r]
Rash, subjects [1]: 9%
